Drawing on paper PMC12638251, “Uridine-sensitized screening identifies demethoxy-coenzyme Q and NUDT5 as regulators of nucleotide synthesis” (Nature Metabolism, 2025), this text covers stoichiometry N and percent of NUDT5 associated to PPAT for two substances.

The target of test [1] is NUDT5 (endogenous, human) (human (endogenous in 293T, K562, HeLa and other human cell lines)) (UniProt Q9UKK9). The test is described as follows: native gel or EMSA; parallel native PAGE (4–16% gel) of human cell lysates in 1× Native Buffer with 1% digitonin, immunoblot for NUDT5 and PPAT; K562 (wild type, NUDT5 KO clones, KO clones with cDNA complementation) and other cell lines; untreated. A general note: A gel shift assay detects complexes by their altered migration in electrophoresis.

Test [2] addresses PPAT (endogenous, human) (human (endogenous in 293T, K562 and other human cell lines)) (UniProt Q06203). The test is described as above.

For “NUDT5 (endogenous, human) (from UniProt Q9UKK9 1-219) (enzyme)”, in test [1], the stoichiometry N (in general, a count of units in the complex or per binding partner) came to 2. The substance “NUDT5 (endogenous, human) (from UniProt Q9UKK9 1-219) (enzyme; other documents disagree on this pair)” returned a percent of NUDT5 associated to PPAT in test [2] of 33%.
